# Assay results: PubChem BioAssay AID624287 (National Center for Advancing Translational Sciences (NCATS), 2012)
# The entries are a selection whose mix differs from that of the whole data set. Inconclusive results are not listed. Some structures show a salt or complex split into parts, the way the source records it. Activity calls are given as the source filed them. Calls come from the whole dose curve; as a rule, active = well fitted activation curve with a large enough effect; inconclusive = small, poorly fitted or top-dose-only effect, or another doubt; inactive = no such curve, though single readings can be large or run the other way; cell line not stated here.
# Assay: qHTS for Agonist of gsp, the Etiologic Mutation Responsible for Fibrous Dysplasia/McCune-Albright Syndrome: qHTS;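 note: phosphodiesterase inhibitor Ro 20-1724 added with compounds to block cAMP breakdown; nearly all actives have a fitted effect of over 60% in size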
# Details: gsp mutant cells, cAMP HTRF, 30 min; at 76.9 µM (top of the series) unless noted
row,SMILES,activation (cAMP increase)
1,c1ccc(CN2CCC(Nc3ccccc3)CC2)cc1,inactive: 1.34%
2,Cc1cc(N(CCCl)CCCl)ccc1C=O,inactive: 2.08%
3,CCCN1CCC(Nc2cc(OC)cc(OC)c2)CC1,inactive: -1.1% [at 15.4 µM]
4,CN(C)C1(CNC(=O)c2cccc(C#N)c2)CCCCC1,inactive: -20.1% [at 15.4 µM]
5,CCOC(=O)C(CC)C1=NC(C)(C)Cc2ccccc21.O=[N+]([O-])c1cc([N+](=O)[O-])c(O)c([N+](=O)[O-])c1 (configuration not stated),inactive: 20.5%
6,CC(C)(C)OC(=O)N1CCC(N(C(=O)c2ccccc2)c2ccc(Cl)cc2)CC1,inactive: -18.1%
7,N#Cc1ccc(C(=O)NCC2(N3CCCCC3)CCCCC2)cc1,inactive: -11% [at 15.4 µM]
8,CCc1cc(C(=O)NCC2(N3CCCCC3)CCCCC2)sc1C,inactive: 7.21% [at 15.4 µM]
9,O=C(OC1CN2CCC1CC2)C1c2ccccc2C=Cc2ccccc21 (configuration not stated),inactive: -10.7%
10,O=C(O)c1cccc(Nc2c([N+](=O)[O-])cc([N+](=O)[O-])cc2[N+](=O)[O-])c1,inactive: 1.85%
11,N/C(=N\O)c1c(N)no[n+]1[O-],inactive: -5.51%
12,CCOC(=O)N1CCC(Nc2ccc(C)cc2)CC1,inactive: 4.51% [at 15.4 µM]
13,COc1ccc(C(=O)NCC2(N3CCOCC3)CCCCC2)cc1OC,inactive: 2.58%
14,O=C(NCC1(N2CCOCC2)CCCCC1)c1cc(Br)ccc1Cl,inactive: 27.7%
15,COc1cc(C(=O)NCC2(N3CCOCC3)CCCCC2)cc(OC)c1C,inactive: -19.2%
16,CN1CCC(Nc2ccc(Cl)cc2)CC1,inactive: -46.7%
17,CCC(CO)(C(=O)OC1CN2CCC1CC2)c1ccccc1 (configuration not stated),inactive: -34.4%
18,COc1cc(OC)cc(C(=O)NCC2(N3CCOCC3)CCCCC2)c1,inactive: -5.87% [at 15.4 µM]
19,COc1cccc(C(=O)N(c2cc(C)cc(C)c2)C2CCN(C(=O)OC(C)(C)C)CC2)c1,inactive: -0.636%
20,CCCOc1ccc(C(=O)NCC2(N(C)C)CCCCC2)cc1,inactive: -7.39%
21,CC(C)(C)OC(=O)N1CCC(Nc2ccccc2)CC1,inactive: -3.62%

row,SMILES,activation (cAMP increase)
1,O=C(O)C1(Nc2ccccc2)CCN(Cc2ccccc2)CC1,inactive: -3.01%
2,CCOc1ncccc1C(=O)NCC1(N2CCOCC2)CCCCC1,inactive: 1.34%
3,CN1CCC(Nc2ccc(F)c(Cl)c2)CC1,inactive: 5.12% [at 15.4 µM]
4,O=C(NCC1(N2CCCCC2)CCCCC1)c1ccco1,inactive: 5%
5,CN(C)c1ccc(C(=O)NCC2(N3CCCCC3)CCCCC2)cc1,inactive: 1.95% [at 15.4 µM]
6,Cn1c(=O)[nH]cc(N(CCCl)CCCl)c1=O,inactive: -63.8%
7,Cc1ccccc1NC1(C#N)CCN(Cc2ccccc2)CC1,inactive: -1.6%
8,CCN1CCC(Nc2cccc(F)c2)CC1,inactive: -21.4%
9,Cc1ccc(NC2(C#N)CCN(Cc3ccccc3)CC2)cc1,inactive: 17.3% [at 15.4 µM]
10,Cc1ccc(C(=O)NCC2(N3CCCCC3)CCCCC2)o1,inactive: -34.8%
11,Fc1ccccc1NC1CCN(Cc2ccccc2)CC1,inactive: -10.4%
12,Cc1ccc(Nc2c([N+](=O)[O-])cc([N+](=O)[O-])cc2[N+](=O)[O-])cc1,inactive: -35%
13,COc1cc(OC)cc(C(=O)NCC2(N3CCCCC3)CCCCC2)c1,inactive: -2.4% [at 15.4 µM]
14,CCOC(=O)N1CCC(Nc2cccc(C)c2)CC1,inactive: -15.6%
15,COc1cc(C(=O)NCC2(N(C)C)CCCCC2)ccc1OC(F)F,inactive: -13% [at 15.4 µM]
16,O=P1(N(CCCl)CCCl)SCCCS1,inactive: 15.4%
17,CCCCOc1ccc(C(=O)NCC2(N3CCOCC3)CCCCC2)cc1,inactive: -0.764% [at 15.4 µM]
18,O=C(NCC1(N2CCCCC2)CCCCC1)c1ccc(F)cc1,inactive: -1.29%
19,COc1ccc(NC2CCN(CCc3ccccc3)CC2)c(OC)c1,inactive: -48.2%
20,CCOC(=O)N1CCC(Nc2ccc(F)cc2)CC1,inactive: -8.12%
21,CCOc1ccc(C)cc1CN(CCCl)CCCl,inactive: 14.1% [at 15.4 µM]

row,SMILES,activation (cAMP increase)
1,CCOC(=O)N1CCC(Nc2ccc(OC)cc2)CC1,inactive: 23.4%
2,O=C(NCC1(N2CCCCC2)CCCCC1)c1ccc(Cl)s1,inactive: 12%
3,N#CC1(Nc2ccccc2)CCN(Cc2ccccc2)CC1,inactive: 10.5%
4,O=C(OC1CN2CCC1CC2)C1c2ccccc2Oc2ccccc21 (configuration not stated),inactive: -39.5%
5,COc1ccc(Cl)cc1C(=O)NCC1(N2CCOCC2)CCCCC1,inactive: -26.5%
6,O=C1C(O)=C([N+](=O)[O-])C(=O)C(O)=C1[N+](=O)[O-],inactive: 25.3%
7,O=C(NCC1(N2CCOCC2)CCCCC1)c1cc2ccccc2o1,inactive: -9.2%
8,O=C(NCC1(N2CCCCC2)CCCCC1)c1ccc(Cl)nc1,inactive: 10.1% [at 15.4 µM]
9,Cc1cc(C)cc(N(C(=O)c2ccccc2)C2CCN(C(=O)OC(C)(C)C)CC2)c1,inactive: 14.1%
10,CSc1ccccc1C(=O)NCC1(N2CCCCC2)CCCCC1,inactive: -43.6%
11,Cc1cccc(NC2(C#N)CCN(Cc3ccccc3)CC2)c1,inactive: 0.355% [at 15.4 µM]
12,O=C(NCC1(N2CCCCC2)CCCCC1)c1cccs1,inactive: -5.5% [at 15.4 µM]
13,COc1ccc(C(=O)NCC2(N3CCCCC3)CCCCC2)cc1,inactive: -25.3% [at 15.4 µM]
14,CC(C)(C)OC(=O)N1CCC(N(C(=O)c2ccccc2)c2ccc(F)cc2)CC1,inactive: 3.67%
15,COc1ccc(C(=O)NCC2(N3CCCCC3)CCCCC2)c(OC)c1OC,inactive: 6.06%
16,Cc1ccc(C(=O)NCC2(N(C)C)CCCCC2)o1,inactive: -64.8%
17,CCCOc1ccc(C(=O)NCC2(N(C)C)CCCCC2)cc1OC,inactive: -5.14% [at 15.4 µM]
18,O=[N+]([O-])c1cc([N+](=O)[O-])c(Nc2ccc(Cl)cc2)c([N+](=O)[O-])c1,inactive: -0.77%
19,CN1CCC(Nc2cccc(F)c2)CC1,inactive: -81.1%
20,COc1ccc2c(c1O)-c1c(O)c(OC)cc3c1[C@H](C2)[N+](C)(C)CC3.O=[N+]([O-])c1cc([N+](=O)[O-])c([O-])c([N+](=O)[O-])c1[O-],inactive: 24.2%
21,O=C(NCC1(N2CCCCC2)CCCCC1)c1cncc(Br)c1,inactive: -29.9%

row,SMILES,activation (cAMP increase)
1,O=C(OC1CN2CCC1CC2)c1ccc([N+](=O)[O-])cc1 (configuration not stated),inactive: -45.7%
2,COc1cc(OC)c(C(=O)NCC2(N(C)C)CCCCC2)cc1OC,inactive: -27.5%
3,O=C(NCC1(N2CCOCC2)CCCCC1)c1cc(F)c(F)cc1Cl,inactive: 6.44%
4,COc1ccc(CN(CCCl)CCCl)cc1Cl,inactive: -23.1%
5,O=[N+]([O-])c1cc([N+](=O)[O-])c(OC2CCCCC2O)c([N+](=O)[O-])c1 (configuration not stated),inactive: 11.2% [at 15.4 µM]
6,CN(C)c1cccc(C(=O)NCC2(N3CCCCC3)CCCCC2)c1,inactive: 0.821%
7,CC(C)c1ccc(NC2CCN(C(=O)OC(C)(C)C)CC2)cc1,inactive: -5.43% [at 15.4 µM]
8,CN1CCN(CCOC(=O)C(O)(c2ccccc2)c2ccccc2)CC1,inactive: -55.4%
9,CC(C)c1ccc(C(=O)NCC2(N3CCOCC3)CCCCC2)cc1,inactive: -78.8%
10,COc1ccc(NC2CCN(C(=O)OC(C)(C)C)CC2)cc1,inactive: 5.61%
11,COc1cc(C(=O)NCC2(N3CCCCC3)CCCCC2)ccc1OC(F)F,inactive: -12.1% [at 15.4 µM]
12,O=C(NCC1(N2CCOCC2)CCCCC1)c1cc(=O)[nH]c2ccccc12,inactive: -12.7%
13,O=C(NCC1(N2CCCCC2)CCCCC1)c1cccc(C(F)(F)F)c1,inactive: 2.54%
14,O=[N+]([O-])c1cc([N+](=O)[O-])c(NCC2CCS(=O)(=O)C2)c([N+](=O)[O-])c1 (configuration not stated),inactive: 1.43% [at 15.4 µM]
15,O=C(NCC1(N2CCCCC2)CCCCC1)c1cccc([N+](=O)[O-])c1,inactive: -44.7%
16,CSc1ccc(C(=O)NCC2(N3CCOCC3)CCCCC2)cc1,inactive: -1.34%
17,CCN1CCC(Nc2ccc(Cl)cc2)CC1,inactive: -24.6%
18,N#CC1(Nc2ccccc2)CCN(CCc2ccccc2)CC1,inactive: -15%
19,O=C(NCC1(N2CCCCC2)CCCCC1)c1ccc(OC(F)F)cc1,inactive: 16.2% [at 15.4 µM]
